# Results from patent publication US8242152B2, “Use of 4-[(4-thiazolyl)phenoxy]alkoxy-benzamidine derivatives for the prophylaxis and treatment of osteoporosis” (Dong Wha Pharmaceutical Co., Ltd., priority 2001, dated 2012).
# Test system: ovariectomized ddY mice
# Experiment: Prophylactic effects in ovariectomized ddY mouse model (estrogen-deficient osteoporosis)
# Type: in vivo
# Conditions: right tibia; 10 mg/kg oral once a day for 6 weeks (F10, D10)
# Description: The effects of a drug would be based on histomorphometric changes of trabecular bone and thickness cortical bone in this model.
# The objective of present study is to observe the prophylactic effect of DW1350MSA, and administration of drug was initiated 3 days after ovariectomy for prophylaxis study. The results were compared to that of Fosamax, well-documented anti-osteoporotic agents.
# Twenty-five female ddY mice (6-wk old upon receipt, SLC, Japan) were used after acclimatization for 7 days. Animals were allocated 5 per polycarbonate cage in a temperature (20-25° C.) and humidity (30-35%) controlled room. Light:dark cycle was 12 hr:12 hr and feed (Samyang, Korea) and water were supplied free to access. […]
# Histomorphometric changes of tibia and femur were evaluated. All histomorphometric indices including trabecular bone volume (TBV, %), thickness of trabecular bone (Tbt), trabecular bone number (Tbn), and length of trabeculer bone (Tbl) were calculated using automated image analysis (analysis Image Processing; SIS, Germany) under magnification 200 (×200) of microscopy (Zeiss, Germany) in the epiphyseal regions of right tibia and/or femur. In addition, cortical bone thickness (Cbt) was measured in mid-shaft region of right tibia and femur. […] Tbt and Tbl were calculated as um levels, and Tbn were calculated as number/whole sectional part of epiphyseal regions levels. • C. […]
compound,measurement,value
"NCCCC(O)(P(=O)(O)O)P(=O)(O)O [Fosamax, Alendronate]","Ocn, osteoclast cell number",9.40 ± 2.30 number
